The text below walks through data of patent US9109007B2, “MHC-I restricted epitopes containing non-natural amino acid residues” (Purdue Pharma L.P., priority 2010, dated 2015).

Test [1] deals with CD8+ T-cells. Kind of test: ELISPOT assay measuring IFNgamma production by CD8+ T-cells expanded by in vitro education on peptide-pulsed dendritic cells. It is filed as cell-based, human. Conditions: T-cells generated with the listed peptide, targets pulsed with 10 uM native MART-1 peptide.
Test [2] concerns CD8+ T-cells. In words: CD107 a and b staining (degranulation) of CD8+ T-cells expanded by in vitro education on peptide-pulsed dendritic cells. It is filed as cell-based, human. To be noted: T-cells generated with the listed peptide; HLA-A0201-transfected C1R targets pulsed with 20 uM native MART-1.

“AAGIGILTV [Native MART-1 nonamer peptide]”: the “IFNγ Production for Targets Pulsed with Native MART-1” value with CD8+ T-cells [1] is recorded as 11. In addition, the “% CD8+ T-cells Degranulating (CD107+) for Targets Pulsed with Native MART-1” value with CD8+ T-cells [2] was found to be 4%.
